## Binding of CDR-mutated scFvs to a peptide of the spike HR2 region

From the AlphaSeq antibody data of Engelhart et al. 2022 (doi:10.1038/s41597-022-01779-4), copy in the FLAb collection.

All variants were tested on one target, the spike HR2 peptide PDVDLGDISGINAS (SARS-CoV-2).

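Library AAYL50 holds single substitutions and randomly drawn double and triple substitutions in the CDRs. AlphaSeq pools MATa yeast showing the antibodies with MATalpha yeast showing the peptide. Mating (16 h, 30 °C) was followed by selection of diploids and sequencing of their barcodes. Scores were corrected for input abundance and mapped to Kd with protein pairs of known affinity run in the same pool. Each pool was mated in three replicate cultures.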

Parent scFv Ab-14: VH joined to VL by three GGGGS repeats. Changes lie in the light chain CDRs alone.
VH: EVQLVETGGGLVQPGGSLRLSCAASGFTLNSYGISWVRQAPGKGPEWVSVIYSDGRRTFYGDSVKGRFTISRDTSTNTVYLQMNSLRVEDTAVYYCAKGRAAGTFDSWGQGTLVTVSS
VL: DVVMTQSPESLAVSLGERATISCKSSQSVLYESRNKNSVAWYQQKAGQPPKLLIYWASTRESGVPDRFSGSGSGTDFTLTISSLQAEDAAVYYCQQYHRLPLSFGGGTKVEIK

Substitutions are numbered in sequence along the VL above, starting at 1 (not Kabat).
This list gathers variants with a substitution at R34 (VL, numbered from residue 1).
Values are apparent Kd, the geometric mean of the replicates that gave a signal; lower means stronger binding.
Where no diploid with the target was found in any replicate, the entry reads "nd": below detection, most likely a poor binder, though not proof of it.
Three control strains display no target. For library AAYL50, 18% of the pairings with them gave a signal, with a median of 15 µM and one signal in twenty below 970 nM, so weak values seen in few replicates may be background.

Variant S33L+R34D+N37F gave 6.1 nM (3 of 3 replicates). Variant S28L+R34T gave 2.4 nM (3 of 3 replicates). Variant Q27K+R34A+A57K showed 93 nM (3 of 3 replicates). Variant E32V+R34F showed 16 µM (3 of 3 replicates). Variant R34E+S38K+R60K gave 1.2 µM (3 of 3 replicates). With S26K+R34T+E61T the result was 15 µM (1 of 3 replicates). Variant R34E+W56A showed 29 nM (3 of 3 replicates).

With S26P+R34K+A57R the result was 660 nM (3 of 3 replicates). Variant R34L+A57G+Y97R showed 7.0 nM (3 of 3 replicates). Variant S25D+R34W+N37R showed 30 nM (3 of 3 replicates). Variant R34L+S58E+R60Q gave 66 nM (3 of 3 replicates). With R34N+R60G+L102T the result was nd (0 of 3 replicates). Variant L30Q+S33T+R34G gave nd (0 of 3 replicates). For S28Y+R34K+S62L, the assay gave nd (0 of 3 replicates).

With S33F+R34K+S62H the result was 50 µM (1 of 3 replicates). For R34Q+N35G, the assay gave 3.8 nM (3 of 3 replicates). With S26M+R34A+E61P the result was 29 nM (3 of 3 replicates). For R34Y+R99E+L100D, the assay gave nd (0 of 3 replicates). Variant R34I+N37Q+Q96E showed 250 nM (3 of 3 replicates). For R34Y+S58W+S62P, the assay gave 21 nM (3 of 3 replicates). Variant L30F+R34F+Q96T gave 20 nM (3 of 3 replicates).

Variant Q27R+R34Y+H98N showed 2.3 nM (3 of 3 replicates). With R34V+N37Q+S62K the result was 5.8 nM (3 of 3 replicates). Variant R34M+K36Q+L100T showed nd (0 of 3 replicates). For R34H, the assay gave 7.0 nM (3 of 3 replicates). Variant R34Q+T59C+E61G showed 11 nM (3 of 3 replicates). With S26L+R34D+L100I the result was 92 nM (3 of 3 replicates). Variant E32C+R34D+Q96W gave nd (0 of 3 replicates).

For L30Q+R34F+R60G, the assay gave 1.6 µM (2 of 3 replicates). Variant R34S+S38A+L100N showed nd (0 of 3 replicates). Variant R34A+R60C gave 170 nM (3 of 3 replicates). Variant R34K+A40E+E61A gave 3.1 µM (1 of 3 replicates).

A selection of 3 entries from above:

| changes | Kd | replicates with signal |
|---|---|---|
| S33F+R34K+S62H | 50 µM | 1/3 |
| S28Y+R34K+S62L | nd | 0/3 |
| R34M+K36Q+L100T | nd | 0/3 |

In this assay the parent's reference entry averaged 4.4 nM; its copy inside this library read 48 nM.